Values quoted from earlier work in US9913806B2, “Patches and methods for the transdermal delivery of a therapeutically effective amount of iron” (FE3 MEDICAL, INC., priority 2008, dated 2018).

Conditions: injection of iron dextran administered over a few hours

iron dextran
patients who developed allergic type side effects: 10-15%
